# Only a part is listed here, and it is no random draw. Activity calls are given as the source filed them.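 The calls were made as follows: active = at least twofold enzyme activation in any of six single-dose repeats, which the averaged readout prints as negative percent; inactive = the rest.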
# Sequences of proteins named here, by UniProt entry; tags and fusion partners are left off. A change or cut given only in a name is not applied to a line headed by its entry.
# UniProt P09923: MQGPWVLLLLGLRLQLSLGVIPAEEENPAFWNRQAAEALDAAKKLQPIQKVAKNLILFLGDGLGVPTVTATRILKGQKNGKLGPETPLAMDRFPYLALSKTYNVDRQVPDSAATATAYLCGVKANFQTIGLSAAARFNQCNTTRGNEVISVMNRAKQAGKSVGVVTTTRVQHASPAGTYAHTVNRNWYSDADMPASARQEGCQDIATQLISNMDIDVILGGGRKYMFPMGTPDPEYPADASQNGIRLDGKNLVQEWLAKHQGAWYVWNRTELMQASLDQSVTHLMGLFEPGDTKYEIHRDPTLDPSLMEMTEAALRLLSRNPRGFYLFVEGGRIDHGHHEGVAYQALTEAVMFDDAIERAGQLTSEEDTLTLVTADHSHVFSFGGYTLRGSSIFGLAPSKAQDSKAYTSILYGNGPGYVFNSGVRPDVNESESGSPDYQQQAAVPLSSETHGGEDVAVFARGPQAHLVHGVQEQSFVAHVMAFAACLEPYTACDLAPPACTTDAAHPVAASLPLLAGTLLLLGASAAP
# Biological target: Intestinal-type alkaline phosphatase (Homo sapiens) (UniProt P09923)
# Assay: enhancement of intestinal alkaline phosphatase activity – biochemical, luminescence, single concentration, uHTS hits, confirmation (AID 434926)
# Conditions: purified IAP, CDP-Star luminescence, 30 min; at 8.3 µM; active compounds read low
structure (smiles),measurement,value
CCOP1(=S)c2c(C)nn(CCC#N)c2N=C(c2ccc(F)cc2)N1C (stereo unspecified),"activation (%Activity, negative = activation)",active: -775%
